Measurements as given in patent US20210395310A1 (UNIVERSITY OF TOKYO, published 2021).

T1: MET-extracellular domain-Fc fusion protein (product of R&D systems) (UniProt P08581 25-932, limits assumed)
T1 construct: extracellular domain; Bought; held on protein G beads; also called MET-Fc; MET-beads; not shown: Fc part
T1 sequence (looked up): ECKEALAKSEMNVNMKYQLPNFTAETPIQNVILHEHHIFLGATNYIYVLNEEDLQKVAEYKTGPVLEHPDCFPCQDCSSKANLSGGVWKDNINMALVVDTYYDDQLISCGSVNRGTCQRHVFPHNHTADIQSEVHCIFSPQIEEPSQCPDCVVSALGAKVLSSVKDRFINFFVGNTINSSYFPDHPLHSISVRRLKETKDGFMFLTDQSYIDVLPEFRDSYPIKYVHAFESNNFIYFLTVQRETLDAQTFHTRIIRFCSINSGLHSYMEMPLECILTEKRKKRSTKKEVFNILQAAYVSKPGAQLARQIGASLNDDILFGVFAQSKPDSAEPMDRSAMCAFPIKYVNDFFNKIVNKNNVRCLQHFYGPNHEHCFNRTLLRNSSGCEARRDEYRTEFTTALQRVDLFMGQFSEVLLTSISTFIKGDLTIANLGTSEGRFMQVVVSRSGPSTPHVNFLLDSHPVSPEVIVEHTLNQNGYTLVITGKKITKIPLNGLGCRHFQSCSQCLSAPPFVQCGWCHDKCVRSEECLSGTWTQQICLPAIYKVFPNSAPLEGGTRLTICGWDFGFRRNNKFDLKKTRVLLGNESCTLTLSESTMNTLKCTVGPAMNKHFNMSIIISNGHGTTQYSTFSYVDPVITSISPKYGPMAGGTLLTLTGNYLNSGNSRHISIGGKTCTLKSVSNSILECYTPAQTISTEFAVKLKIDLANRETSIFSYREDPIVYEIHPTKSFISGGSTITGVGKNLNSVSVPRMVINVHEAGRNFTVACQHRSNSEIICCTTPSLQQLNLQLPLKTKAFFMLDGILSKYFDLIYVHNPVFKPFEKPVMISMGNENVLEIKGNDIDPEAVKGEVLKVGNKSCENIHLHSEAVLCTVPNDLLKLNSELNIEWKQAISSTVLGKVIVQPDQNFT


Legend:
MET on EHMES-1 cells = MET on EHMES-1 cells (UniProt P08581); assay: cell-based or functional assay
[1] = molecular target: T1, MET-extracellular domain-Fc fusion …; assay: flow cytometry of MET-Fc on protein G beads with rising fluorescein HGF, saturation curve fitting
Method: Binding to MET-immobilized beads or control protein G beads was detected by a flow cytometer at varying fluorescein HGF concentrations. […] The arrow in the graph indicates 0.44 nM fluorescein HGF used for peptide assessment. MFI means mean fluorescence intensity.
Labeling of hHGF with fluorescein was performed using a succinimidyl fluorescein labeling kit (product of Dojindo). On 200 μl (50% v/v) of protein G beads (Spherotech) in Tris-buffered physiological saline (pH 7.5) containing 0.1% BSA and […] of Tween-20, 5 μg of MET-extracellular domain-Fc fusion protein (product of R&D systems) was immobilized. […] The fluorescence intensity of the beads was detected using a flow cytometer (product of FACS Canto II, BD Biosciences).

Row | Binder | MET activation (EC50), cell-based MET activation assay in EHMES-1 cells (MET on EHMES-1 cells) | Kd [1]
1 | human hepatocyte growth factor (HGF), recombinant full-length, active two-chain form (ligand) QRKRRNTIHEFKKSAKTTLIKIDPALKIKTKKVNTADQCANRCTRNKGLPFTCKAFVFDKARKQCLWFPFNSMSSGVKKEFGHEFDLYENKDYIRNCIIGKGRSYKGTVSITKSGIKCQPWSSMIPHEHSYRGKDLQENYCRNPRGEEGGPWCFTSNPEVRYEVCDIPQCSEVECMTCNGESYRGLMDHTESGKICQRWDHQTPHRHKFLPERYPDKGFDDNYCRNPDGQPRPWCYTLDPHTRWEYCAIKTCADNTMNDTDVPLETTECIQGQGEGYRGTVNTIWNGIPCQRWDSQYPHEHDMTPENFKCKDLRENYCRNPDGSESPWCFTTDPNIRVGYCSQIPNCDMSHGQDCYRGNGKNYMGNLSQTRSGLTCSMWDKNMEDLHRHIFWEPDASKLNENYCRNPDDDAHGPWCYTGNPLIPWDYCPISRCEGDTTPTIVNLDHPVISCAKTKQLRVVNGIPTRTNIGWMVSLRYRNKHICGGSLIKESWVLTARQCFPSRDLKDYEAWLGIHDVHGRGDEKCKQVLNVSQLVYGPEGSDLVLMKLARPAVLDDFVSTIDLPNYGCTIPEKTSCSVYGWGYTGLINYDGLLRVAHLYIMGNEKCSQHHRGKVTLNESEICAGAEKIGSGPCEGDYGGPLVCEQHKMRMVLGVIVPGRGCAIPNRPGIFVRVAYYAKWIHKIILTYKVPQS | 0.07 nM | 
2 | fluorescein-HGF (ligand, labelled with a succinimidyl fluorescein labeling kit (sites not given), also called fluoresceinated HGF) QRKRRNTIHEFKKSAKTTLIKIDPALKIKTKKVNTADQCANRCTRNKGLPFTCKAFVFDKARKQCLWFPFNSMSSGVKKEFGHEFDLYENKDYIRNCIIGKGRSYKGTVSITKSGIKCQPWSSMIPHEHSYRGKDLQENYCRNPRGEEGGPWCFTSNPEVRYEVCDIPQCSEVECMTCNGESYRGLMDHTESGKICQRWDHQTPHRHKFLPERYPDKGFDDNYCRNPDGQPRPWCYTLDPHTRWEYCAIKTCADNTMNDTDVPLETTECIQGQGEGYRGTVNTIWNGIPCQRWDSQYPHEHDMTPENFKCKDLRENYCRNPDGSESPWCFTTDPNIRVGYCSQIPNCDMSHGQDCYRGNGKNYMGNLSQTRSGLTCSMWDKNMEDLHRHIFWEPDASKLNENYCRNPDDDAHGPWCYTGNPLIPWDYCPISRCEGDTTPTIVNLDHPVISCAKTKQLRVVNGIPTRTNIGWMVSLRYRNKHICGGSLIKESWVLTARQCFPSRDLKDYEAWLGIHDVHGRGDEKCKQVLNVSQLVYGPEGSDLVLMKLARPAVLDDFVSTIDLPNYGCTIPEKTSCSVYGWGYTGLINYDGLLRVAHLYIMGNEKCSQHHRGKVTLNESEICAGAEKIGSGPCEGDYGGPLVCEQHKMRMVLGVIVPGRGCAIPNRPGIFVRVAYYAKWIHKIILTYKVPQS |  | 0.07 nM
